# Antibody variant affinities, Ab-14 heavy chain, assay 1

All variants were tested on one target, the spike HR2 peptide PDVDLGDISGINAS (SARS-CoV-2).

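The starting antibody came from a phage panning campaign against this peptide. The library (AAYL49) carries one to three amino acid substitutions per variant, with no insertions or deletions. AlphaSeq pools MATa yeast showing the antibodies with MATalpha yeast showing the peptide. The frequency of each diploid, read from paired DNA barcodes, reflects how well the two displayed proteins bind. Each replicate has its own calibration line, from reference interactions of the BCL2 family. The assay was run in three technical replicates.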

Ab-14 is the parent antibody, in scFv form: VH, then a (GGGGS)3 linker, then VL. The light chain is unchanged in all variants.
VH: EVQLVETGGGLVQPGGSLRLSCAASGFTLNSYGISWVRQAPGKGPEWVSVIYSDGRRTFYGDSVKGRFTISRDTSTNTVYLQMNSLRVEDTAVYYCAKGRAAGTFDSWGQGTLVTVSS
VL: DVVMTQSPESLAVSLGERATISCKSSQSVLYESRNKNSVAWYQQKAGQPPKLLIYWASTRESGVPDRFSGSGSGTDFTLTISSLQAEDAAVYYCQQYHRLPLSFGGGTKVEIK

The parent's heavy chain CDRs are GFTLNSYGIS, VIYSDGRRTFYGDSVK, GRAAGTFDS; each variant's own CDRs replace them letter for letter. Kd is apparent (estimated from mating counts) and averaged on the log scale over replicates with a signal. Smaller is tighter. A pair that was not seen in any replicate is written "nd"; this usually means weak binding, but a binder can also be missed. As a blank, each scFv also met three strains without target: over library AAYL49, 15% of these pairings were detected, typically at 11 µM and seldom below 680 nM. Also given: how often the same scFv was detected with the empty control strains. In this assay the parent's reference entry averaged 4.4 nM; its copy inside this library read 13 µM (one replicate of three).

| CDR-H1 | CDR-H2 | CDR-H3 | apparent Kd | replicates with signal | control signals |
|---|---|---|---|---|---|
| GFTLNSYGIS | VIYSDGYRTFYGDSVK | GVAAGTFRS | nd | 0/3 | 0/9 |
| GFTLNSYGIS | VIYSDGWRTFYGDSVK | GEAAGTFDS | nd | 0/3 | 1/9 |
| GFELNSYGIS | VIYSDGRGEFYGDSVK | GRAAGTFDS | 8.8 µM | 1/3 | 3/9 |
| GFTLNSYGIS | VIYSDGRRTFYGCSVK | GRAAGTVDK | 11 µM | 1/3 | 0/9 |
| GFTLVSYLIV | VIYSDGRRTFYGDSVK | GRAAGTFDS | 1.7 µM | 1/3 | 1/9 |
| GFTYESYGIS | VIYSDGRRTFYGDSVK | GRNAGTFDS | 4.9 µM | 3/3 | 3/9 |
| GFTINSYGIS | VIYDDGRRTFYWDSVK | GRAAGTFDS | nd | 0/3 | 0/9 |
| GFTLNSYGIS | VIYSDGRRTFYGDSVT | GRAQGTFDS | 65 nM | 3/3 | 1/9 |
| GFTLNSYGIS | VAKSDGRRTFYGDSVA | GRAAGTFDS | 280 µM | 2/3 | 2/9 |
| GFTLNSVGIS | VIYSDGRRTFYGDSVK | GRAAGLFDQ | 190 nM | 3/3 | 0/9 |
| GMTVNSYGIS | VIYSDGRRTFYGDSVK | GRAAGTFDS | 6.0 µM | 3/3 | 3/9 |
| GFTLHSYGIS | VGVSDGRRTFYGDSVK | GRAAGTFDS | 1.0 mM | 1/3 | 0/9 |
| GFTLNSYGIS | VIYSDGCCTFYGDSVK | GRAAGTFDK | nd | 0/3 | 0/9 |
| GFTLNSYDIS | VIYSSGRRTFYGDSVK | GRAAGTFDS | 2.0 µM | 1/3 | 4/9 |
| GFTLNSYGIS | VIYSDARRTFAGDSVK | GRAAGIFDS | 11 µM | 2/3 | 1/9 |
| GFTLNSYGRS | VIYSDGRRTFYGDVVK | GRAAGTFDM | nd | 0/3 | 1/9 |
| GFDLNSYGIS | VIYSDGRRTFYGRSVK | GRAAGTFDS | 1.2 µM | 1/3 | 0/9 |
| GFTLNSYGIS | VIYSDGRRTFYGLSVK | GRAAGCFDS | 340 µM | 1/3 | 0/9 |
| GFTLNSYGGS | VIYSEGRRTFYGDSVK | GRAAGTFIS | nd | 0/3 | 0/9 |
| GFTLNSYGIS | VIYSDGRRTFIGESVK | HRAAGTFDS | 200 nM | 2/3 | 0/9 |
| GFTLNSYKIW | VIYSDGRRTFYGDSNK | GRAAGTFDS | nd | 0/3 | 1/9 |
| GFTLNDYGIS | VIYSDRRRTFYKDSVK | GRAAGTFDS | nd | 0/3 | 1/9 |
| GFTLNSYGIK | VISSDGRRTFYGDSIK | GRAAGTFDS | 12 µM | 2/3 | 0/9 |
| GFTLNSYGIS | VRYNDGRRTDYGDSVK | GRAAGTFDS | 8.9 µM | 2/3 | 0/9 |
| GHTLNSYGIS | VIYSDGRREFYGDSVK | GRAAGQFDS | 230 nM | 3/3 | 1/9 |
| GFTLNMYGIS | QIYSDGRRTFYGDTVK | GRAAGTFDS | nd | 0/3 | 0/9 |
| GFTLNSYGIS | VIYSDGRRFFYGDSVD | GRAAGTFQS | 2.5 µM | 3/3 | 1/9 |
| GFTLNSYEIS | VIYGDGRRTFTGDSVK | GRAAGTFDS | nd | 0/3 | 0/9 |
| GFTLNSYGIS | FIYSDGRRTFCGDSVK | GRAAGTFSS | nd | 0/3 | 1/9 |
| GFTLNSYGIS | KGYSDGRRTFYGDSVK | GRAAGTFDS | nd | 0/3 | 1/9 |
| GFTLNSYGIL | VIYMDGRKTFYGDSVK | GRAAGTFDS | nd | 0/3 | 1/9 |
| GFTMSSYGIS | VIYSDGRRTFYGDSVK | GRAASTFDS | 400 nM | 3/3 | 5/9 |
| GFTLQSYGIS | VIYSDGRRTFYGMSVK | GRAAGTFDS | 3.1 µM | 3/3 | 0/9 |
| GFTLNHYGIS | VIQSDGRRTFYGDSVK | ERAAGTFDS | 19 µM | 2/3 | 4/9 |
| GFTLNSYQIS | VIYSVGGRTFYGDSVK | GRAAGTFDS | nd | 0/3 | 0/9 |
| GFTLNSYGIS | VIYLDGRMTFYGDSVK | GRAAGTFGS | 47 µM | 2/3 | 2/9 |
| GFTKNSYGIS | VISSDGNRTFYGDSVK | GRAAGTFDS | 230 µM | 1/3 | 6/9 |
| GFLLNSYGIS | VIYSDVRRTYYGDSVK | GRAAGTFDS | nd | 0/3 | 1/9 |
| GFTLNSYGIN | VQYSDGRRTFYGDSVK | GRAAGSFDS | 52 µM | 1/3 | 2/9 |
| GFTLNSYGIS | VIYSDGRRTFYGDSVC | GNAAGTCDS | 4.3 µM | 1/3 | 2/9 |
| GNTLNSYGIS | VIYIDGRLTFYGDSVK | GRAAGTFDS | nd | 0/3 | 1/9 |
| GFTLNSYGIS | SIYSTGRRTFYGDSVK | GRAAGTKDS | 17 µM | 2/3 | 2/9 |
| GFELNIYGIS | VIYSDGRRTFYGDSVK | GRAANTFDS | 31 µM | 3/3 | 3/9 |
| GFTYNSYGIS | VIYSDGRRTFYGVSVK | GRAAGTFDS | nd | 0/3 | 0/9 |
| GFTLNSYGIS | VIYTDGRPTFYGDSVK | GRAEGTFDS | nd | 0/3 | 0/9 |
| GFSLNSDGIS | VIYSDGRRTFDGDSVK | GRAAGTFDS | nd | 0/3 | 1/9 |

7 of these entries, quoted again:

| CDR-H1 | CDR-H2 | CDR-H3 | apparent Kd | replicates with signal | control signals |
|---|---|---|---|---|---|
| GFELNIYGIS | VIYSDGRRTFYGDSVK | GRAANTFDS | 31 µM | 3/3 | 3/9 |
| GFTLNSYGIL | VIYMDGRKTFYGDSVK | GRAAGTFDS | nd | 0/3 | 1/9 |
| GFTLNSYGIN | VQYSDGRRTFYGDSVK | GRAAGSFDS | 52 µM | 1/3 | 2/9 |
| GFTLNSYGIS | VIYLDGRMTFYGDSVK | GRAAGTFGS | 47 µM | 2/3 | 2/9 |
| GFTINSYGIS | VIYDDGRRTFYWDSVK | GRAAGTFDS | nd | 0/3 | 0/9 |
| GFTLNSYGIS | VIYSDGWRTFYGDSVK | GEAAGTFDS | nd | 0/3 | 1/9 |
| GFTLNSYGIS | FIYSDGRRTFCGDSVK | GRAAGTFSS | nd | 0/3 | 1/9 |

Reference: Engelhart et al. 2022, doi:10.1038/s41597-022-01779-4. File: FLAb, binding data.